Measured values: patent US9683053B2

Biological target: scFv(anti-HER2)-BT beta chain (Artificial Sequence)
Experiment: co-expression of three chains, protein-A, scanning densitometry of non-reduced SDS-PAGE

hetero-dimerization rate: 49.5%
Substance: VH(anti-EGFR)-CH1-BT alpha chain with VL(anti-EGFR)-CK chain
